In patent publication US9643980B2, “Benzoxazepin oxazolidinone compounds and methods of use” (Genentech, Inc., priority 2015, dated 2017):
Like-named read-outs stand apart in the source and are kept apart here.

Chains of the proteins cited; added tags and fusions are not shown. Lines headed by an entry give the natural chain unless they say otherwise; changes in a name come on top.
UniProt P48736: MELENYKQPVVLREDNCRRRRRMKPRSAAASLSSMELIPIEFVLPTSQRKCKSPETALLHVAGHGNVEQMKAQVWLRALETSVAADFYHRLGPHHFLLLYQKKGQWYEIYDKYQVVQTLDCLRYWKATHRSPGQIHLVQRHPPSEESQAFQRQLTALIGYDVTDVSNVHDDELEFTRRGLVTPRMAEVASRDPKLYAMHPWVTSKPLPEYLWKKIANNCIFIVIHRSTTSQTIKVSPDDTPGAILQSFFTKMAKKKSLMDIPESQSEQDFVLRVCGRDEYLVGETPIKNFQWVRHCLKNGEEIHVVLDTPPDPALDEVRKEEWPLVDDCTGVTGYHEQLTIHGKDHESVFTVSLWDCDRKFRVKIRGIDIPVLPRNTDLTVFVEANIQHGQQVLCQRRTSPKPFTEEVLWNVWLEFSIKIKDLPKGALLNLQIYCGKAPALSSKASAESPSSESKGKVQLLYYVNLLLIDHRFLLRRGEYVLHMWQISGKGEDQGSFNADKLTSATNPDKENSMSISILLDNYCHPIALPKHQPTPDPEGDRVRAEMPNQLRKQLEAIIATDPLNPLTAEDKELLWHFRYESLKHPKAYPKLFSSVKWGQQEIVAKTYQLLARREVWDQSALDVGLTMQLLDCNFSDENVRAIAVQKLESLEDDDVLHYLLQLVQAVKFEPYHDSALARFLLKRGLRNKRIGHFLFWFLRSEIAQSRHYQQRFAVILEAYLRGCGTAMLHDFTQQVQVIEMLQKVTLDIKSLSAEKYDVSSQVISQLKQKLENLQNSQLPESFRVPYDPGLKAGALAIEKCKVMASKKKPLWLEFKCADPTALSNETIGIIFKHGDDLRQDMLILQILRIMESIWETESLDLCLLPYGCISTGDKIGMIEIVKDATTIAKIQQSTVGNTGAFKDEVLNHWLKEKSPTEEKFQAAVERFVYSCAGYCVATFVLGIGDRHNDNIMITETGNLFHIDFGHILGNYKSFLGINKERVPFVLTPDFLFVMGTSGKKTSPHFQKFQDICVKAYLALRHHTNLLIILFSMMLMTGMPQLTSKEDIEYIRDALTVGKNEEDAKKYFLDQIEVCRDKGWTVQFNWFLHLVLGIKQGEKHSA
UniProt O00329: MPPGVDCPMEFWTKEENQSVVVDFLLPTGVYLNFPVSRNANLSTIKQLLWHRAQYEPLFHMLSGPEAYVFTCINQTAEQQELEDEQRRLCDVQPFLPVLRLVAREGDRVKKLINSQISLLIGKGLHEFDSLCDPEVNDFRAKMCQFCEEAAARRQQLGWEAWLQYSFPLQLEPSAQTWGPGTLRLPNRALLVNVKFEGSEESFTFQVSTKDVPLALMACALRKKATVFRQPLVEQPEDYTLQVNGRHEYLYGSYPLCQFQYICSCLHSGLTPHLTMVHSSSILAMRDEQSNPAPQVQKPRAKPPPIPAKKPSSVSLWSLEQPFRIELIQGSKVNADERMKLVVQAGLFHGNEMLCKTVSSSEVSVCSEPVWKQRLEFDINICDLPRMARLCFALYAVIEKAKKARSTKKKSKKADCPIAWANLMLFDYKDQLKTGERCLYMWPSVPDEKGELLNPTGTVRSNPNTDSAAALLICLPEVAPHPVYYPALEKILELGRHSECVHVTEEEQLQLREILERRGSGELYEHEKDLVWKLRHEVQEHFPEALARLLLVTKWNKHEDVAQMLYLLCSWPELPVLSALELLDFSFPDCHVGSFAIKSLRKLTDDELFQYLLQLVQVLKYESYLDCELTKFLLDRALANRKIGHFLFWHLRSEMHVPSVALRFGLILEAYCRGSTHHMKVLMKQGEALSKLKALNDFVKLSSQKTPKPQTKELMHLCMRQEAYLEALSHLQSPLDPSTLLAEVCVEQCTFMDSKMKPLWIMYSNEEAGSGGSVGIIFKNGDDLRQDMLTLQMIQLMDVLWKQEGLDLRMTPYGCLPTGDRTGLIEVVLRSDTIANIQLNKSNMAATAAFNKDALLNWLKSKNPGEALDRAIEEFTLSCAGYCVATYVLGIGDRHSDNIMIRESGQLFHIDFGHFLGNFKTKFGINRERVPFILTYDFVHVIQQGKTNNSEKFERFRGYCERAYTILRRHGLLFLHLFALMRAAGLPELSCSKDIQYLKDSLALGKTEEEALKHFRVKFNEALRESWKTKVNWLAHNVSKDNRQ
UniProt P42336, whole entry: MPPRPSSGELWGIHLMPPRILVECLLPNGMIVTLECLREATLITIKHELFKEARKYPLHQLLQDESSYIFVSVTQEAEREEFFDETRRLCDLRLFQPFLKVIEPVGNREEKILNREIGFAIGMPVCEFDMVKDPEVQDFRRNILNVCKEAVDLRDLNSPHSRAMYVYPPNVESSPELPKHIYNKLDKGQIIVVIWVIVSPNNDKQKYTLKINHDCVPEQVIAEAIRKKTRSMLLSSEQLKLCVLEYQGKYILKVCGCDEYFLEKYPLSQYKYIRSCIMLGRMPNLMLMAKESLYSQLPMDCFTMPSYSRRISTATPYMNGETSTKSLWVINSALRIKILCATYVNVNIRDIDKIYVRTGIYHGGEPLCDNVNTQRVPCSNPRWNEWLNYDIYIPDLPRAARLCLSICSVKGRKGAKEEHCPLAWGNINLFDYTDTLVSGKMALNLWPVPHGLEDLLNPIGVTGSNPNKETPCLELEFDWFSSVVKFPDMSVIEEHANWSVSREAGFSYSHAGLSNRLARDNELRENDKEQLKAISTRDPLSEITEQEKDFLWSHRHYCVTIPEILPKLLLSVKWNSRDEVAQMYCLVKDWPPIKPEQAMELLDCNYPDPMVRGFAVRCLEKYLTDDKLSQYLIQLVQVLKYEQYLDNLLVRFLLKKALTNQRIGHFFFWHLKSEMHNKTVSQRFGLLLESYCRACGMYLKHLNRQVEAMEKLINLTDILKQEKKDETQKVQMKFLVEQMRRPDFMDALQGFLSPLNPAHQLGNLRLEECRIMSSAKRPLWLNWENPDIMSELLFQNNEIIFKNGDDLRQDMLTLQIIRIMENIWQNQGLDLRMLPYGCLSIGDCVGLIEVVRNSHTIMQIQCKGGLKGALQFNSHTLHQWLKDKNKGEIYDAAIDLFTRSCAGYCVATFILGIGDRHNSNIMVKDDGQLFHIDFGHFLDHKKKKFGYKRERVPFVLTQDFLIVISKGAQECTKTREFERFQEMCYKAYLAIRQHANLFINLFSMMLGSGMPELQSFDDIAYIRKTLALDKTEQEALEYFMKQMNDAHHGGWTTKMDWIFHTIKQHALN

Columns and labels:
PI3Kγ = PI3Kγ (Homo sapiens, UniProt P48736); experiment: PI3K binding assay (lipid kinase reaction, ADP-Glo), PI3K gamma; type: biochemical; conditions: Table 2A; first value of cell (ADP-Glo, Example 901)
PI3Kδ [1] = biological target: T1, PI3Kδ (Homo sapiens, UniProt O00329); experiment: PI3K binding assay (lipid kinase reaction, ADP-Glo), PI3K delta; type: biochemical
PI3Kδ [2] = biological target: T1, PI3Kδ; conditions: read-out: PI3Kδ FP Ki, second value of cell after slash (FP)
PI3Kα [3] = biological target: T2, PI3Kα (Homo sapiens, UniProt P42336); conditions: read-out: PI3Kα FP Ki, second value of cell after slash (FP)
PI3Kα [4] = biological target: T2, PI3Kα; experiment: PI3K binding assay (lipid kinase reaction, ADP-Glo), PI3K alpha; type: biochemical
[5] = Table 2A, first value of cell (ADP-Glo, Example 901)
[6] = Table 2B comparator compounds, first value of cell (ADP-Glo)

Cc1nc(-c2cn3c(n2)-c2ccc(-c4cnn(C(C)(C)C(N)=O)c4)cc2OCC3)n(C(C)C)n1 [taselisib, 2-(4-(2-(1-isopropyl-3-methyl-1H-1,2,4-triazol-5-yl)-5,6-dihydrobenzo[f]imidazo[1,2-d][1,4]oxazepin-9-yl)-1H-pyrazol-1-yl)-2-methylpropanamide, reference compound]
Ki (PI3Kγ): 1.43 nM | Ki (PI3Kδ [1]; [5]): 0.079 nM | Ki (PI3Kδ [1]; [6]): 0.079 nM | Ki (PI3Kδ [2]; Table 2A): 0.12 nM | Ki (PI3Kδ [2]; Table 2B): 0.12 nM | Ki (PI3Kα [3]; Table 2A): 0.29 nM | Ki (PI3Kα [3]; Table 2B): 0.29 nM | Ki (PI3Kα [4]; [5]): 0.09 nM | Ki (PI3Kα [4]; [6]): 0.09 nM
